## Ab-14 light chain CDR variants: yeast mating affinities

Data: MIT Lincoln Laboratory AlphaSeq set, Li et al. 2023, doi:10.1038/s41467-023-39022-2, as distributed in FLAb.

Binding partner: SARS-CoV-2 spike HR2 peptide, sequence PDVDLGDISGINAS.

Each scFv is VH, three GGGGS repeats, VL, as in the parent Ab-14, and differs from it in the CDRs of the light chain only.
VH: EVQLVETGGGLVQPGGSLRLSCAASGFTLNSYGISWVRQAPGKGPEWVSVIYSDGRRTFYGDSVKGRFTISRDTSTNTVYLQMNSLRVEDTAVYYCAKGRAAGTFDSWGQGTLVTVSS
VL: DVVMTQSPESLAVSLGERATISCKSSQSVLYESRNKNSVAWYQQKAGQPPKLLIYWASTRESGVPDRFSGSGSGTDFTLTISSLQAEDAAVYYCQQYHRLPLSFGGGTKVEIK

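The starting antibody came from a phage panning campaign against this peptide. This is the validation round: designs drawn from the data on random variants, tested in the same kind of assay. Their group label is 14L_En_HC (En: ensemble of fine-tuned language models; HC: hill climbing; a sequence that several methods proposed may carry one label only). The scFvs were displayed on barcoded MATa yeast, the peptide on MATalpha yeast. Binding brings cells together so that they mate, and sequencing counts the barcode pairs among the diploids. The ratio of observed to expected reads was calibrated, replicate by replicate, on BCL2-family standards whose Kd was known from biolayer interferometry. There are six technical replicates.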

Each variant is given by its three light chain CDRs, as the data file delimits them; those of the parent are KSSQSVLYESRNKNSVA, WASTRES, QQYHRLPLS. Affinities are written as log10 Kd with Kd in nM; a lower number is a better binder. The mean shown is taken over the replicates in which the pair was detected. "ND" marks a missing value. The strain was present, yet no cells mated with the target were sequenced in that replicate, which points to weak or no binding. The range of this assay differs from that of the first round, and the authors advise against merging the two. Background: pairings of all light chain designs with three empty control strains gave a value in 4% of cases (median 2.64, 5th percentile 1.59). Values in that range, when seen in few replicates, are hard to tell from nonspecific mating. Also given: how often the same scFv was detected with the empty control strains, with their mean in brackets. The authors averaged sequences with at least three values out of six and counted those with two or fewer as poor binders.

{"CDR-L1": "HISQMVMYGSCNKNNVA", "CDR-L2": "QVSTRGE", "CDR-L3": "QQYHRLPLS", "log10 Kd (nM) by replicate": "1.34 / 1.09 / 1.37 / 1.61 / 1.35 / 1.51", "mean, log10 nM": "1.38", "empty controls": "0/18"}
{"CDR-L1": "ILSQMMLAAGNKHSSVA", "CDR-L2": "QANNRED", "CDR-L3": "QQYHRLPLS", "log10 Kd (nM) by replicate": "1.04 / 1.18 / 1.16 / 0.64 / 1.04 / 1.25", "mean, log10 nM": "1.05", "empty controls": "0/18"}
{"CDR-L1": "HISMSMNYLSRNKNSIA", "CDR-L2": "EESTRED", "CDR-L3": "QQYARLPLS", "log10 Kd (nM) by replicate": "1.75 / 1.32 / 2.07 / 2.16 / 2.09 / 1.87", "mean, log10 nM": "1.88", "empty controls": "0/18"}
{"CDR-L1": "KLSIMGLHESIDKKSIA", "CDR-L2": "ERSTREN", "CDR-L3": "QQYHRLPLS", "log10 Kd (nM) by replicate": "0.36 / 0.15 / 0.20 / 0.25 / 0.29 / 0.13", "mean, log10 nM": "0.23", "empty controls": "0/18"}
{"CDR-L1": "TISQSANQESHNKNSVA", "CDR-L2": "DLSVRGS", "CDR-L3": "QQYDRLPLS", "log10 Kd (nM) by replicate": "ND / ND / ND / 2.66 / ND / ND", "mean, log10 nM": "2.66", "empty controls": "1/18 (1.98)"}
{"CDR-L1": "TISQSFMMENQFKNSVA", "CDR-L2": "QVSTRES", "CDR-L3": "QCYDRLPLS", "log10 Kd (nM) by replicate": "1.41 / 0.91 / 1.53 / 1.88 / 2.70 / 1.91", "mean, log10 nM": "1.72", "empty controls": "1/18 (3.28)"}
{"CDR-L1": "KLSMHYRYESENKNSIA", "CDR-L2": "ELVTRMS", "CDR-L3": "QQYHRLPLS", "log10 Kd (nM) by replicate": "1.57 / 1.62 / 0.82 / 1.75 / 0.95 / 1.83", "mean, log10 nM": "1.42", "empty controls": "2/18 (2.83)"}
{"CDR-L1": "TISQSWFIESRNKNNVA", "CDR-L2": "EMTCREN", "CDR-L3": "QDYDRLPLS", "log10 Kd (nM) by replicate": "ND / 1.49 / ND / ND / ND / 1.17", "mean, log10 nM": "1.33", "empty controls": "0/18"}
{"CDR-L1": "MISQLFMYGSRKYNSVA", "CDR-L2": "QASTRES", "CDR-L3": "QQYDRLPLI", "log10 Kd (nM) by replicate": "1.28 / 2.07 / ND / 1.42 / 1.50 / 1.16", "mean, log10 nM": "1.49", "empty controls": "3/18 (2.24)"}
{"CDR-L1": "KLSGLTRLESQNKASVA", "CDR-L2": "ENSTRGE", "CDR-L3": "QQYFRLPLS", "log10 Kd (nM) by replicate": "0.23 / -0.35 / -0.29 / -0.17 / -0.28 / -0.18", "mean, log10 nM": "-0.17", "empty controls": "2/18 (2.62)"}
{"CDR-L1": "KLRQVTGYESYLRNSVA", "CDR-L2": "QMSTRAE", "CDR-L3": "QDYHRLPLS", "log10 Kd (nM) by replicate": "0.51 / 0.45 / 0.35 / 0.22 / 0.47 / 0.23", "mean, log10 nM": "0.37", "empty controls": "0/18"}
{"CDR-L1": "SITQLVAYGQRNKNSVA", "CDR-L2": "QMSTRES", "CDR-L3": "QQYDRLPLS", "log10 Kd (nM) by replicate": "0.94 / 1.19 / 1.08 / 0.96 / 0.99 / 1.25", "mean, log10 nM": "1.07", "empty controls": "4/18 (2.72)"}
{"CDR-L1": "QLLMATMQGTYNRNSVA", "CDR-L2": "HAQMRND", "CDR-L3": "QSYHRLPLS", "log10 Kd (nM) by replicate": "1.06 / 0.93 / 1.22 / 1.36 / 1.33 / 1.09", "mean, log10 nM": "1.16", "empty controls": "0/18"}
{"CDR-L1": "TVSQVHEMLSRNKNSVA", "CDR-L2": "DMNTREQ", "CDR-L3": "QQYDRLPLS", "log10 Kd (nM) by replicate": "0.23 / 0.30 / 0.21 / 0.13 / 0.05 / 0.43", "mean, log10 nM": "0.23", "empty controls": "0/18"}
{"CDR-L1": "TISQSTYWETFNKNSVA", "CDR-L2": "QTSTREE", "CDR-L3": "QDYDRLPLS", "log10 Kd (nM) by replicate": "ND / 2.91 / 3.18 / 2.97 / 2.52 / 2.36", "mean, log10 nM": "2.79", "empty controls": "0/18"}
{"CDR-L1": "KLSATYRYESQNKNSIA", "CDR-L2": "EMSTREK", "CDR-L3": "QCYHRLPLS", "log10 Kd (nM) by replicate": "1.57 / 1.53 / 2.00 / 1.69 / 2.04 / 2.01", "mean, log10 nM": "1.81", "empty controls": "1/18 (4.36)"}
{"CDR-L1": "TISQMFLGESRNRNSVA", "CDR-L2": "QASTRFS", "CDR-L3": "QSYDRLPLS", "log10 Kd (nM) by replicate": "1.24 / 1.00 / 0.80 / 0.85 / 0.90 / 1.21", "mean, log10 nM": "1.00", "empty controls": "1/18 (2.92)"}
{"CDR-L1": "KVSDMMAFLSRNRNSVA", "CDR-L2": "DNSTRGS", "CDR-L3": "QQYNRLPLS", "log10 Kd (nM) by replicate": "0.47 / 0.64 / 0.78 / 0.48 / 0.78 / 0.68", "mean, log10 nM": "0.64", "empty controls": "1/18 (3.82)"}
{"CDR-L1": "KISQMYRYEQQNHSSIA", "CDR-L2": "EANTREQ", "CDR-L3": "QSYHRLPLS", "log10 Kd (nM) by replicate": "ND / 3.73 / ND / 3.87 / 5.34 / 3.71", "mean, log10 nM": "4.16", "empty controls": "2/18 (3.38)"}
{"CDR-L1": "KLSMSMRYESEQKNSIA", "CDR-L2": "ELVTRMS", "CDR-L3": "QQYHRLPLS", "log10 Kd (nM) by replicate": "0.80 / 0.76 / 1.12 / 0.56 / 0.77 / 0.93", "mean, log10 nM": "0.82", "empty controls": "1/18 (2.46)"}
{"CDR-L1": "KIGGVTNGISRSKNSVA", "CDR-L2": "EQSTRED", "CDR-L3": "QQYNRLPLS", "log10 Kd (nM) by replicate": "0.22 / 0.34 / -0.15 / -0.13 / 0.16 / 0.38", "mean, log10 nM": "0.14", "empty controls": "0/18"}
{"CDR-L1": "KLSMSVRMESFVKDNVA", "CDR-L2": "ENSTREA", "CDR-L3": "QDYNRLPLS", "log10 Kd (nM) by replicate": "ND / 4.66 / ND / ND / ND / ND", "mean, log10 nM": "4.66", "empty controls": "0/18"}

Picked from the list: the 3 lowest averages where every replicate gave a value.

{"CDR-L1": "KLSGLTRLESQNKASVA", "CDR-L2": "ENSTRGE", "CDR-L3": "QQYFRLPLS", "log10 Kd (nM) by replicate": "0.23 / -0.35 / -0.29 / -0.17 / -0.28 / -0.18", "mean, log10 nM": "-0.17", "empty controls": "2/18 (2.62)"}
{"CDR-L1": "KIGGVTNGISRSKNSVA", "CDR-L2": "EQSTRED", "CDR-L3": "QQYNRLPLS", "log10 Kd (nM) by replicate": "0.22 / 0.34 / -0.15 / -0.13 / 0.16 / 0.38", "mean, log10 nM": "0.14", "empty controls": "0/18"}
{"CDR-L1": "TVSQVHEMLSRNKNSVA", "CDR-L2": "DMNTREQ", "CDR-L3": "QQYDRLPLS", "log10 Kd (nM) by replicate": "0.23 / 0.30 / 0.21 / 0.13 / 0.05 / 0.43", "mean, log10 nM": "0.23", "empty controls": "0/18"}